Values joined by “and” are separate entries in the source; they are usually repeats but may differ in a detail not shown here. Identical values can stand only once. The entries are a selection whose mix differs from that of the whole data set. Active and inactive are the calls of the source.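 How the source made its calls: active means activation above a per-plate cutoff, the mean activation of sample wells on that plate plus 3 SD (cut at about 8% in these data); inactive means the rest.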

The chains behind the UniProt entries cited, without tags or fusion partners.
UniProt P32245, whole entry, looked up: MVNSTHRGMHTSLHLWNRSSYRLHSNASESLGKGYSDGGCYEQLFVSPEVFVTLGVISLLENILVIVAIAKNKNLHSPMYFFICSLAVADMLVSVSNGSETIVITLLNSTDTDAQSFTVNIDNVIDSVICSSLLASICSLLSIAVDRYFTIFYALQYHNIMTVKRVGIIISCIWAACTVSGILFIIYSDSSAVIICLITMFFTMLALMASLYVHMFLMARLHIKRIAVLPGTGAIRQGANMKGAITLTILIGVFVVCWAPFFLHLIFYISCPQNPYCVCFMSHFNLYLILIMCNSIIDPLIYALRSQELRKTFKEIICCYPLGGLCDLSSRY

In the assay the target is Melanocortin receptor 4 (Homo sapiens) (UniProt P32245). The assay is described as follows: activators of MC4R beta-arrestin recruitment – cell-based, luminescence, agonist arm of biased-ligand search, primary screen (AID 540308). As to conditions: U2OS MC4R beta-arrestin complementation, at 8.9 µM, active compounds read high, percent of melanotan II response, DMSO zero. Background: Arrestin recruitment assays detect the binding of arrestin to an activated receptor.
For `O=C(OC1CN2CCC1CC2)C12CC3CC(CC(C3)C1)C2` (centres undefined), the activation was inactive: 2.67%.

With `O=P1(N(CCCl)CCCl)OCCCN1CCCl` (centres undefined), the activation was inactive: 0.04%.

In the case of `O=P1(N(CCCl)CCCl)Nc2ccccc2N1`, the activation is inactive: -0.12%.

Turning to `COc1cc(I)ccc1[As](=O)(O)O`, the activation is inactive: 0.62%.

Turning to `COc1ccc2nc(NP(=O)(c3ccccc3)c3ccccc3)sc2c1`, the activation was inactive: -2.15%.

`O=[N+]([O-])c1cc(Oc2ccc([N+](=O)[O-])cc2C(F)(F)F)cc([N+](=O)[O-])c1`: the activation is inactive: 1.73%.

Turning to `COc1ccc(N/C(=N/P(=O)(N2CCOCC2)N2CCOCC2)N2CCOCC2)cc1`, the activation was inactive: -3.43%.

Consider `COP1(=S)c2c(C)nn(CCC#N)c2N=C(c2ccc(F)cc2)N1C` (centres undefined), for which the activation was inactive: -2.11%.

As for `O=C(O)C(=O)c1ccc(N(CCCl)CCCl)cc1`, the activation was inactive: -1.27%.

Consider `O=C(Nc1ccncc1[N+](=O)[O-])c1ccc([N+](=O)[O-])cc1[N+](=O)[O-]`, for which the activation is inactive: -0.15%.

Regarding `O=C(COc1ccccc1)OC1CN2CCC1CC2` (centres undefined), the activation was inactive: 0.87%.

In the case of `CSc1ccc(Nc2c([N+](=O)[O-])cc([N+](=O)[O-])cc2[N+](=O)[O-])cc1`, the activation was inactive: -4.45%.

Consider `O=C(OC1CN2CCC1CC2)c1cccc([N+](=O)[O-])c1` (centres undefined), for which the activation is inactive: 0.05%.

With `CCOC(=O)c1ccc(NC(=O)C(C)(CCl)SC)cc1` (centres undefined), the activation was inactive: -1.04%.

On to `CCC(C)N(CC(C)C)C(=S)SC(NC(C)=O)C(Cl)(Cl)Cl` (centres undefined), for which the activation is inactive: 0.18%.

As to `CCOC(=O)Nc1ccc([As](=O)(O)O)c(O)c1`, the activation was inactive: -1.06%.

In the case of `O=C(O)C(O)c1ccc(N(CCCl)CCCl)cc1` (centres undefined), the activation was inactive: -0.16%.

Take `CC1CCNP(=O)(N(CCCl)CCCl)O1` (centres undefined): the activation is inactive: -1.55%.

Regarding `COP(=O)(OC)N1CC1c1ccccc1` (centres undefined), the activation is inactive: -0.35%.

`Cc1cc(SC(NC(=O)c2ccccc2)C(Cl)(Cl)Cl)nc(C(C)C)n1` (centres undefined): the activation was inactive: 0.56%.

As to `CCCCOc1ccc(C(=O)NCC2(N3CCCCC3)CCCCC2)cc1OC`, the activation was inactive: -1.53%.

For `CCOC(=O)Nc1cccc([As](=O)(O)O)c1`, the activation was inactive: -1.9%.

For `O=P(Nc1ccccn1)(c1cccc2ccccc12)c1cccc2ccccc12`, the activation is inactive: -2.59%.

On to `Cc1cc(SC(NC=O)C(Cl)(Cl)Cl)ncn1` (centres undefined), for which the activation is inactive: 0.87%.

Take `O=[N+]([O-])c1ccc(Nc2ccc(Oc3ccc([N+](=O)[O-])cc3[N+](=O)[O-])cc2)c([N+](=O)[O-])c1`: the activation is inactive: -1.21%.

In the case of `CC1CCC(C(C)C)C(OP(=O)(Nc2ccccn2)c2ccccc2)C1` (centres undefined), the activation is inactive: 0.36%.

On to `Cc1ccc(C(=O)OC2CN3CCC2CC3)cc1` (centres undefined), for which the activation was inactive: 1.17%.

Take `Cc1nn(-c2ccccc2)c2c1P(=O)(N1CCOCC1)N(C)C(c1ccccc1)=N2` (centres undefined): the activation was inactive: -1.26%.

Consider `CN(C)C1(CNC(=O)c2ccc(S(C)(=O)=O)cc2)CCCCC1`, for which the activation is inactive: 0.63%.

With `CCCC1OP(=O)(Nc2ccccc2)OCC1CC` (centres undefined), the activation is inactive: 2.1%.

On to `O=C(/C=C/c1ccccc1)OC1CN2CCC1CC2` (centres undefined), for which the activation was inactive: -3.12%.

Take `O=P1(Nc2ncccn2)COc2ccccc2OC1`: the activation was inactive: -1.96%.

For the compound `Nc1cccc([As](=O)(O)c2ccccc2)c1`, the activation is inactive: -3.33%.

`O=[As](O)(c1cccs1)c1cccs1`: the activation is inactive: -0.78%.

In the case of `Cc1ccc(OCC(=O)OC2CN3CCC2CC3)cc1` (centres undefined), the activation was inactive: -1.89%.

Consider `O=P1(Nc2ccc(Br)cn2)COc2ccccc2OC1`, for which the activation was inactive: -1.41%.

As to `NS(=O)(=O)c1cccc(NC(=O)COC(=O)C(O)(c2ccccc2)c2ccccc2)c1`, the activation was inactive: -1.11%.

In the case of `CCOP(=O)(NC(=NC(C)c1ccccc1)NC(C)c1ccccc1)OCC` (centres undefined), the activation was inactive: -2.39%.

Consider `O=P1(Nc2ccccn2)COc2ccccc2OC1`, for which the activation is inactive: 0.88%.

For `CCC1=CC2Cc3nc4ccc(Cl)cc4c(N)c3C(C1)C2` (centres undefined), the activation is inactive: 1.37%.

Consider `CCOP(=O)(Nc1ccc(C)cn1)OCC`, for which the activation was inactive: -0.54%.

Take `CN(CCCl)Cc1cc(Cl)c(NC2=NCCN2)c(Cl)c1`: the activation was inactive: -0.75%.

Turning to `CC(C)(C)C(=O)NC(Sc1ncccn1)C(Cl)(Cl)Cl` (centres undefined), the activation is inactive: -0.28%.

`O=P1(N(CCCl)CCCl)NCCC(C(F)(F)F)O1` (centres undefined): the activation was inactive: -0.73%.

For `Clc1n[nH]nc1-c1nn[nH][15n]1`, the activation was inactive: -0.66%.

Take `COc1ccccc1CNC(=O)COC(=O)C(O)(c1ccccc1)c1ccccc1`: the activation was inactive: -3.08%.

Consider `CC(C)/C=N\N=C(\N)N[N+](=O)[O-]`, for which the activation was inactive: 0.26%.

With `CN(C(=O)Cc1ccc(Cl)c(Cl)c1)[C@@H]1CCCC[C@H]1N1CCCC1`, the activation is inactive: -0.17%.

Turning to `CC1(CBr)Cn2c(nc3ccccc3c2=O)S1` (centres undefined), the activation is inactive: -0.97%.

On to `O=C(OC1CN2CCC1CC2)c1ccc(Cl)cc1` (centres undefined), for which the activation is inactive: -0.36%.

Regarding `CS(=O)(=O)c1ccc(Cl)c(NC(=O)COC(=O)C(O)(c2ccccc2)c2ccccc2)c1`, the activation is inactive: -1.66%.

`O=[As](O)(O)c1cccnc1`: the activation was inactive: -1.97%.

Turning to `COc1cc(C(=O)NCC2(N3CCOCC3)CCCCC2)cc(Cl)c1OC(C)C`, the activation is inactive: 0.53%.

`Cc1cccc(OCC(=O)OC2CN3CCC2CC3)c1` (centres undefined): the activation is inactive: 0.4%.

For `O=[As](O)(c1cccc(O)c1)c1cccc(O)c1`, the activation was inactive: 0.62%.

For `Nc1cccc2c([As](=O)(O)O)cccc12`, the activation was inactive: 1.01%.

Consider `Cc1ccc(NCCc2c([N+](=O)[O-])cc([N+](=O)[O-])cc2[N+](=O)[O-])cc1`, for which the activation is inactive: 1.36%.

Regarding `CCCOP(=S)(Nc1nc(N)cc(=O)[nH]1)OCCC`, the activation is inactive: 0.6%.

Take `CCOP(=O)(Nc1cccc2ccccc12)OCC`: the activation was inactive: -1.93%.

`COc1cc(C2NCCC3(OCCO3)C2(C)C)cc(OC)c1OC` (centres undefined): the activation is inactive: 0.9%.

With `O=P(Nc1nccs1)(Oc1ccccc1)Oc1ccccc1`, the activation is inactive: 1.6%.

As to `O=P(Nc1nccs1)(c1ccccc1)c1nc2ccccc2s1` (centres undefined), the activation is inactive: -0.45%.

As for `CCOP1(=S)c2c(C)nn(CCC#N)c2N=C(c2ccccc2F)N1C` (centres undefined), the activation was inactive: -1.52%.

In the case of `CS(=O)(=O)c1cc([N+](=O)[O-])c2no[n+]([O-])c2c1`, the activation was inactive: -1.07%.

Take `Nc1ccccc1[As](=O)(O)c1ccccc1`: the activation was inactive: -0.29%.

Regarding `O=C(O)COc1ccc([As](=O)(O)O)cc1[N+](=O)[O-]`, the activation is inactive: 2.21%.

Turning to `NC(=O)Nc1ccc([As](=O)(O)O)cc1`, the activation was inactive: -1.76%.

Consider `COc1ccc(CC(C)NCC(O)c2ccc(O)c(NC=O)c2)cc1` (centres undefined), for which the activation was inactive: -0.33% and inactive: -1.76%.

Regarding `CCOP1(=S)c2c(C)nn(CCC#N)c2N=C(c2ccc(F)cc2)N1C` (centres undefined), the activation was inactive: 2.66%.

As to `CN(C(=O)Cc1ccccc1)[C@@H]1CC[C@]2(CCCO2)C[C@H]1N1CCCC1`, the activation is inactive: 0.85%.

As to `N#CCCN(C(=O)COC(=O)C(O)(c1ccccc1)c1ccccc1)c1ccc(F)cc1`, the activation is inactive: -2.53%.

In the case of `CN(C(=O)Cc1ccc(Cl)c(Cl)c1)[C@H]1CC[C@@]2(CCCO2)C[C@@H]1N1CCCC1`, the activation was inactive: 0.64%.

Take `O=[N+]([O-])c1ccc2c(c1)nnn2O`: the activation is inactive: -0.71%.

As for `CN(C)C(=O)c1cc([N+](=O)[O-])cc2c1-c1c(cc([N+](=O)[O-])cc1[N+](=O)[O-])C2=O`, the activation was inactive: -2.67%.
